These results are taken from US8895544B2, “Indazoles” (Pfizer Limited, priority 2011, dated 2014).

Sequences of proteins named here, by UniProt entry; tags and fusion partners are left off. A change or cut given only in a name is not applied to a line headed by its entry.
UniProt P23458: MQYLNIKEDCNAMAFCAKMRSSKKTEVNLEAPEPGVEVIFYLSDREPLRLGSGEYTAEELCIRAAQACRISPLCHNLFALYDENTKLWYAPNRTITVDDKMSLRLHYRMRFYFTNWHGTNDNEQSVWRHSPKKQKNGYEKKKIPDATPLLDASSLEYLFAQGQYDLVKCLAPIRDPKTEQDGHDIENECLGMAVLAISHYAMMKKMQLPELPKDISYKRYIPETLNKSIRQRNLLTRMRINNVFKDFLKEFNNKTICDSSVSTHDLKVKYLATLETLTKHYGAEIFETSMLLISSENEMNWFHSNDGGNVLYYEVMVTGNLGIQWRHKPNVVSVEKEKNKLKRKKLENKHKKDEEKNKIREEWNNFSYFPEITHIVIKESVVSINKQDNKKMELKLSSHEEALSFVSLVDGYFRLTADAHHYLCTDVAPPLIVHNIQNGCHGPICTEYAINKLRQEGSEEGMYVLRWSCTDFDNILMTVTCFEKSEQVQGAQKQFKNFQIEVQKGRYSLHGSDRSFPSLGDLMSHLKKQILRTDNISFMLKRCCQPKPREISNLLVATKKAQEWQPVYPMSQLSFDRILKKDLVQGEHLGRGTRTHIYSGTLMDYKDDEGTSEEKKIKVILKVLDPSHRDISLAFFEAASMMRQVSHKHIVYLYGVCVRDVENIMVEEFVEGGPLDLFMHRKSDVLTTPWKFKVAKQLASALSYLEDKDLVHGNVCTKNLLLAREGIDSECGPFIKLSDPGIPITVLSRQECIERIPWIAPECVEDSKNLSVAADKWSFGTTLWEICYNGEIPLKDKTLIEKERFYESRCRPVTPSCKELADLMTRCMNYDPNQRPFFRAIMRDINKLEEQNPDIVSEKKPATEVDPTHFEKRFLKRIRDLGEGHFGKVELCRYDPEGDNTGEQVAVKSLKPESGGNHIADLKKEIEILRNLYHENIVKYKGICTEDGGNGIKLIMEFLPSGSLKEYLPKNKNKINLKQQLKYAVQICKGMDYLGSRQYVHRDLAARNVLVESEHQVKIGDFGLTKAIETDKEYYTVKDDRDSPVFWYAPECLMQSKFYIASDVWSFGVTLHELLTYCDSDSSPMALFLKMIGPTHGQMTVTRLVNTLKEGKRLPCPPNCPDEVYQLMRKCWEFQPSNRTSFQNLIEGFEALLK

Assay [1] deals with T1, JAK1 (Homo sapiens (Human), UniProt P23458). Nature of the assay: JAK1 isolated enzyme high ATP Caliper endpoint assay.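 Further: enzyme at 10 nM preincubated with inhibitor 30 min, then kinase reaction 120 min at room temperature, peptide phosphorylation read by microfluidic mobility shift with fluorescence, inhibition relative to HPE and ZPE plate controls.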 The class given is biochemical. Conditions: 2.5 mM ATP, read-out: JAK-1 IC50. Here is the method: JAK1 Isolated Enzyme High ATP Caliper Endpoint Assay
4 mM stock solutions of test compounds are prepared and serially diluted in 100% DMSO. A standard curve using PF-00956980 (commercially available from Sigma Aldrich) at a top concentration of 4 mM is also prepared. High percentage effect (HPE) is defined by 500 μM PF-00956980 and 0% effect (ZPE) is defined by 100% DMSO. Greiner 384 well plates are prepared containing 400 nl of serially diluted compound, standard and HPE/ZPE. Final top assay concentration is 80 μM as the assay dilution factor is fifty.
JAK1 enzyme (Invitrogen) stock solution is made up at 5.2 μM in sterile water. […]
Assays are performed in Greiner polypropylene 384 well plates. […] Data is generated by the shift in mobility of non-phosphorylated peptide substrates and phosphorylated products by electrophoresis within a chip and detected via LED induced fluorescence. Data is analysed using LabChip EZReader software which calculates the relative heights of the substrate and product peaks and reports product/product plus substrate peak ratio. Test compound data are subsequently expressed as percentage inhibition defined by HPE and ZPE values for each plate. […]

Assay [2] addresses T1, JAK1. Put plainly: JAK1 PathHunter assay (prolactin response, U2OS cell line). The conditions noted are these: PathHunter U2OS cell line expressing JAK1, prolactin challenge; read-out: JAK-1 IC50. It counts as cell-based.

The structures appear in SMILES notation. pIC50: −log10 of the molar value.

Turning to `CCc1cc(O)c(F)cc1-c1ccc2c(-c3nc4c([nH]3)CCN(C(=O)c3cnc(N5CCCCC5)cn3)C4)n[nH]c2c1` [Example 4, {2-[6-(2-Ethyl-5-fluoro-4-hydroxy-phenyl)-1H-indazol-3-yl]-1,4,6,7-tetrahydro-imidazo[4,5-c]pyridin-5-yl}-(5-piperidin-1-yl-pyrazin-2-yl)-methanone], the pIC50 (commonly the negative decadic logarithm of the IC50, by convention in mol/L) was 8.27 on JAK1 [1] and 7.12 on JAK1 [2].
